This is an account of results in PubChem BioAssay AID602363 (Broad Institute, 2012).

Screen size: about 350,000 compounds; about 450 (0.13%) were called active. What follows is part of a selection rich in actives, with near analogues and random picks from the rest. Unmarked numbers belong to inactive results.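 How the source made its calls: active means replicate mean at a twofold rise or more (about +100% in these data); inactive means the rest.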

The experiment in a line: UUG initiation codon usage in yeast – whole organism, S. cerevisiae, single point, plate reader, primary screen (AID 602363).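 Further: firefly luciferase made from a UUG start codon reports start codon fidelity.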 As to conditions: S. cerevisiae UUG-firefly luciferase reporter, luminescence/redox ratio; at 18.7 µM; active compounds read high. Background: A reporter such as luciferase makes a cellular process visible.
For the compound `COc1ccc(NC(=O)Nc2cccc3c2O[C@@H](CN(C)Cc2ccncc2)[C@H](C)CN([C@H](C)CO)C3=O)cc1`, the activity score was -5.85%. In the case of `CC(C)C#Cc1ccc2c(c1)O[C@@H](CN(C)C(=O)Nc1ccccc1)[C@H](C)CN([C@H](C)CO)S2(=O)=O`, the activity score is -2.56%. In the case of `CCC(=O)N(C)C[C@@H]1Oc2ncc(C#CCC3CCCC3)cc2C(=O)N([C@@H](C)CO)C[C@H]1C` it was 5.33%; in that of `O=C(c1ccncc1)N1C[C@H]2[C@@H](c3ccccc31)[C@H](CO)N2C(=O)c1ccccn1`, -20.1%. In the case of `O=C(N[C@H]1CC[C@@H](CCNS(=O)(=O)c2ccc(Cl)cc2)O[C@H]1CO)c1cccc(F)c1` it was 12.6%. Next, `CC(C)CC#Cc1cnc2c(c1)C(=O)N([C@H](C)CO)C[C@H](C)[C@@H](CN(C)Cc1ccccc1)O2`: 16.5%; `C[C@H](CO)N1C[C@H](C)[C@@H](CN(C)C(=O)C2CCCCC2)Oc2cc(-c3ccccc3)ccc2S1(=O)=O`: 9.53%. Take `C[C@H]1CN([C@@H](C)CO)C(=O)c2cc(NC(=O)Cn3cnnn3)ccc2O[C@@H]1CN(C)S(=O)(=O)c1cccs1`: the activity score was -10.2%. Next, `O=C(O)C[C@@H]1C[C@@H]2c3cc(NC(=O)NC4CCCC4)ccc3O[C@@H]2[C@H](CO)O1`: -9.94%. For `COc1cccc(S(=O)(=O)Nc2ccc3c(c2)[C@H]2C[C@H](CC(=O)O)O[C@H](CO)[C@H]2O3)c1`, the activity score is -0.528%. Next, `Cc1noc(C)c1NC(=O)Nc1ccc2c(c1)C(=O)N([C@H](C)CO)C[C@H](C)[C@@H](CN(C)Cc1ccc3c(c1)OCO3)OCCCC[C@@H](C)O2`: -5.08%.

`C[C@@H]1CN([C@@H](C)CO)C(=O)c2cc(C#CC(C)(C)O)cnc2O[C@@H]1CN(C)C(=O)C1CCOCC1`: the activity score was -1.48%. Next, `CCc1ccc(NC(=O)CN2C(=O)CSC2=O)cc1`: -4.72%; `Cc1cccc(NC(=O)CN2C(=O)CNC2=O)c1`: -17.5%. Next, `CC(=O)N1CC(=O)N(CC(=O)Nc2ccc(Br)cc2)C1=S`: 120% (active); `CCCNC(=O)N(C)C[C@H]1Oc2ncc(C#CC(C)C)cc2C(=O)N([C@@H](C)CO)C[C@@H]1C`: 11.9%.

In the case of `CO[C@H]1CN(C)C(=O)c2cc(NC(=O)c3cc(C)on3)ccc2OC[C@H](C)N(C(C)=O)C[C@H]1C`, the activity score is 7.59%.

With `O=C(Cc1ccccn1)N[C@H]1CC[C@H](CCNS(=O)(=O)c2cccc(F)c2)O[C@@H]1CO`, the activity score was -14.5%. Take `CC(=O)N1C[C@@H]2[C@H](c3ccccc31)[C@H](CO)N2C(=O)Nc1ccc(F)cc1`: the activity score is 27%. Next, `O=C(C[C@@H]1C=C[C@H](NC(=O)CCN2CCCCC2)[C@H](CO)O1)NCc1ccc(Cl)c(Cl)c1`: -10.1%; `O=C(Nc1ccc(Oc2ccccc2)cc1)c1ccco1`: 570% (active); `O=C(NNC(=O)c1ccco1)Nc1ccccc1`: -11.9%. In the case of `Cc1ccc(NC(=O)c2ccco2)cc1` it was 13.9%; in that of `CC(C)NC(=O)N1CCCCN2[C@H](CO)[C@H](c3ccc(C#C[C@H](C)O)cc3)[C@H]2C1`, 4.66%.

In the case of `Cc1noc(C)c1S(=O)(=O)N(C)C[C@@H]1OCCCC[C@H](C)Oc2ccc(NC(=O)Nc3ccc4c(c3)OCO4)cc2C(=O)N([C@H](C)CO)C[C@@H]1C`, the activity score is -17.6%. As for `O=C(Nc1ccc(Cl)cc1)N1C[C@@H]2[C@H](c3ccccc31)[C@@H](CO)N2C(=O)c1cccnc1`, the activity score is -17%.

For `CC(C)NC(=O)Nc1ccc2c(c1)C(=O)N([C@@H](C)CO)C[C@H](C)[C@@H](CN(C)C(=O)Nc1ccc(F)cc1)OCCCC[C@H](C)O2`, the activity score was -6.2%. `C[C@H](CO)N1C[C@H](C)[C@H](CN(C)Cc2ccc3c(c2)OCO3)Oc2c(cccc2N(C)C)C1=O`: the activity score was -9.31%. Next, `COc1ccc(S(=O)(=O)N(C)C[C@H]2OCCCC[C@@H](C)Oc3ccc(NC(=O)CCC(F)(F)F)cc3C(=O)N([C@@H](C)CO)C[C@H]2C)cc1`: 1.93%; `C=CCOC(=O)[C@H]1[C@@H]2C(=O)O[C@@H](c3ccccc3)[C@@H](c3ccccc3)N2[C@@H](c2ccc(OCCOC(=O)[C@H]3C[C@H]4C(=O)NCC(=O)N4[C@H]3c3ccc(O)cc3)cc2)[C@]12C(=O)Nc1ccccc12`: -7.32%. Next, `COc1ccccc1-c1cnc2c(c1)C(=O)N([C@H](C)CO)C[C@@H](C)[C@@H](CN(C)CC1CCCC1)O2`: -0.682%; `C[C@H](CO)N1C[C@H](C)[C@H](CN(C)C(=O)c2ccccn2)Oc2ncc(-c3ccccc3F)cc2C1=O`: 9.71%; `Cc1noc(C)c1NC(=O)N(C)C[C@@H]1Oc2ccc(NS(=O)(=O)c3ccc(Cl)cc3)cc2C(=O)N([C@@H](C)CO)C[C@H]1C`: 9.56%.

`C[C@H](CO)N1C[C@H](C)[C@@H](CN(C)Cc2ccc(Cl)c(Cl)c2)Oc2c(NC(=O)C3CCCCC3)cccc2C1=O`: the activity score was 0.419%. As to `CO[C@H]1CN(C)C(=O)c2cc(NS(C)(=O)=O)ccc2OC[C@H](C)N(C(=O)C2CCCC2)C[C@H]1C`, the activity score is -1.38%. Next, `C[C@@H]1CN([C@H](C)CO)C(=O)Cc2cc(NS(=O)(=O)c3ccc(Cl)cc3)ccc2O[C@@H]1CN(C)S(=O)(=O)c1ccc(Cl)cc1`: -17.9%; `Cc1ccc(S(=O)(=O)N(C)C[C@@H]2Oc3ccc(NS(=O)(=O)c4c(C)noc4C)cc3CC(=O)N([C@H](C)CO)C[C@H]2C)cc1`: 12.2%; `CCCNC(=O)C[C@H]1CC[C@@H]2[C@H](COc3ccc(NC(=O)c4ccc(OC)cc4)cc3C(=O)N2C)O1`: 4.65%. Consider `C[C@@H](NC(=O)C[C@H]1C[C@H]2c3cc(NC(=O)Nc4ccccc4F)ccc3O[C@H]2[C@@H](CO)O1)c1ccccc1`, for which the activity score was -2.05%.

Take `CCCNC(=O)N1C[C@@H](O)COC[C@H]2O[C@@H](CC(=O)NCCCN3CCOCC3)CC[C@@H]21`: the activity score is -4.24%.

For the compound `C[C@@H]1CN([C@@H](C)CO)C(=O)c2cc(NS(=O)(=O)c3cccs3)ccc2O[C@@H]1CN(C)S(=O)(=O)c1ccc(F)cc1`, the activity score was 2.8%. Next, `C[C@@H]1CCCCO[C@@H](CN(C)S(C)(=O)=O)[C@H](C)CN([C@@H](C)CO)C(=O)c2cc(NC(=O)Nc3ccc4c(c3)OCO4)ccc2O1`: 12.2%; `C[C@H]1CN([C@@H](C)CO)C(=O)c2cc(-c3ccccc3F)cnc2O[C@@H]1CN(C)C(=O)C1CCCCC1`: 12.9%; `CO[C@@H]1CN(C)C(=O)c2cc(NC(=O)NC3CCCCC3)ccc2OC[C@H](C)N(CC2CC2)C[C@H]1C`: -4.52%.

With `CC(=O)N(C)C[C@H]1Oc2cc(C#CC3CC3)ccc2S(=O)(=O)N([C@H](C)CO)C[C@@H]1C`, the activity score was 22%.

In the case of `COc1ccccc1C#Cc1ccc([C@H]2[C@H](CO)N3CCCCN(C(=O)C4CCC4)C[C@@H]23)cc1`, the activity score was 29.8%. In the case of `Cc1ccccc1-c1cnc2c(c1)C(=O)N([C@@H](C)CO)C[C@@H](C)[C@@H](CN(C)CC1CCOCC1)O2` it was -10.7%; in that of `C[C@@H]1CN([C@@H](C)CO)S(=O)(=O)c2ccc(C#C[C@@H](C)O)cc2O[C@@H]1CN(C)C(=O)CN(C)C`, -1.41%; in that of `C/C=C/c1ccc2c(c1)O[C@@H](CN(C)C(=O)NC1CCCC1)[C@@H](C)CN([C@H](C)CO)S2(=O)=O`, 12.5%. In the case of `CC(C)C#Cc1ccc2c(c1)O[C@@H](CN(C)C(=O)CN(C)C)[C@@H](C)CN([C@H](C)CO)S2(=O)=O` it was 61.3% (active); in that of `C[C@H]1CN([C@@H](C)CO)S(=O)(=O)c2ccc(C#CCN(C)C)cc2O[C@H]1CN(C)C(=O)CN(C)C`, 28.3%; in that of `C[C@@H]1CN([C@@H](C)CO)S(=O)(=O)c2ccc(C#Cc3ccc(F)cc3)cc2O[C@H]1CN(C)C(=O)NC1CCCC1`, 273% (active). Next, `C[C@@H]1CN([C@@H](C)CO)S(=O)(=O)c2ccc(C#Cc3ccc(F)cc3)cc2O[C@@H]1CN(C)CC1CC1`: 11.3%; `Cc1ccc(S(=O)(=O)N(C)C[C@@H]2Oc3ccc(NC(=O)NC4CCCCC4)cc3C(=O)N([C@@H](C)CO)C[C@H]2C)cc1`: -6.25%. On to `C[C@@H]1CN([C@@H](C)CO)S(=O)(=O)c2ccc(C#Cc3ccccc3)cc2O[C@@H]1CN(C)C(=O)C1CC1`, for which the activity score is -28.6%. Next, `COCC#Cc1cnc2c(c1)C(=O)N([C@@H](C)CO)C[C@@H](C)[C@@H](CN(C)C(=O)c1cccnc1)O2`: -8.09%; `CN1c2ccc(Br)cc2[C@@H]2[C@@H](CCN2C(=O)C2CCCCC2)[C@H]1CO`: 25.4%.

As to `C[C@H](CO)N1C[C@H](C)[C@H](CN(C)C(=O)Nc2cccc3ccccc23)Oc2ncc(C#Cc3ccccc3)cc2C1=O`, the activity score was -10%.

Turning to `Cc1ccccc1S(=O)(=O)N1[C@H](C#N)[C@H](c2ccccc2)[C@H]1CO`, the activity score is -7.59%. Next, `C[C@H](CO)N1C[C@H](C)[C@H](CN(C)S(=O)(=O)c2cccs2)Oc2ccc(NS(=O)(=O)c3ccc(Cl)cc3)cc2CC1=O`: 3.99%; `COc1ccc(CN(C)C[C@H]2OCCCC[C@H](C)Oc3ccc(NC(=O)Nc4ccc5c(c4)OCO5)cc3C(=O)N([C@H](C)CO)C[C@@H]2C)cc1`: 0.433%.

In the case of `C[C@H](CO)N1C[C@H](C)[C@H](CN(C)S(=O)(=O)c2cccs2)Oc2c(NC(=O)Nc3ccc4c(c3)OCO4)cccc2C1=O`, the activity score was 6.62%.
